Experimental data reported in patent US20120041167A1, “POLY(GLUTAMIC ACID)-DRUG CONJUGATE WITH AN AMINO ACID AS A LINKER” (Institute of Pharmacology and Toxicology Academy of …, priority 2006, published 2012).

Legend:
[1] = system: human liver cancer cells (HepG2); assay: Activities against transplanted human liver cancer tumor in mice; assay type: in vivo, Balb/c-nu/nu nude mice; conditions: HepG2 xenograft, 20 days after administration; for Number of animals (final/initial): single i.v. dose 100 mg/kg (as free drug)
Description: Balb/c-nu/nu nude mice (5 to 7 weeks old, 16-20 g) were randomly grouped. The mice were inoculated subcutaneously with 0.1 ml of a cell suspension containing 10^6 human liver cancer cells (HepG2). Upon the tumor volume having reached 50 mm^3, the mice were intravenously injected with a dose of a conjugate or a free drug. Twenty days after the administration, the animals were sacrificed and their body weight and tumor weight were measured. Tumor inhibition rate was calculated according to the following equation: […]

[2] = system: human breast cancer cells (Bacp-37); assay: Activities against transplanted human breast cancer tumor in mice; assay type: in vivo, Balb/c-nu/nu nude mice; conditions: Bacp-37 xenograft, 20 days after administration; for Number of animals (final/initial): single i.v. dose 100 mg/kg
Description: Balb/c-nu/nu nude mice (5 to 7 weeks old, 16-20 g) were randomly grouped. The mice were inoculated subcutaneously with 0.1 ml of a cell suspension containing 10^6 human breast cancer cells (Bacp-37). Upon the tumor volume having reached 50 mm^3, the mice were intravenously injected with a dose of a conjugate or a free drug. Twenty days after the administration, the animals were sacrificed and their body weight and tumor weight were measured.

Row | Substance | Change of body weight (g) ([1]; i.v. 5 mg/kg (as free drug)) | Change of body weight (g) ([2]; i.v. 5 mg/kg) | Number of animals (final/initial) [1] | Number of animals (final/initial) [2] | Change of body weight (g) ([1]; i.v. 100 mg/kg (as free drug)) | Change of body weight (g) ([2]; i.v. 100 mg/kg)
1 | [poly-(L)-glutamic acid]-[5′-O-(glycyl)-gemcitabine] conjugate [Compound I1] | +9.94 g | +9.42 g | – | – | – | –
2 | [N-acetyl-poly-(L)-glutamic acid]-[2′-O-(L-alanyl)-paclitaxel] conjugate [Compound I10] | – | – | 6/6 | 6/6 | – | –
3 | [N-acetyl-poly-(L)-glutamic acid]-[2′-O-(glycyl)-paclitaxel] conjugate [Compound I4] | – | – | – | – | +9.03 g | +9.24 g
4 | [N-acetyl-poly-(L)-glutamic acid]-[2′-O-(L-isoleucyl)-docetaxel] conjugate [Compound I18] | – | – | 6/6 | 6/6 | +8.75 g | +9.16 g
5 | [N-acetyl-poly-(L)-glutamic acid]-[2′-O-(L-valyl)-paclitaxel] conjugate [Compound I22] | – | – | 6/6 | 6/6 | – | –
6 | [N-acetyl-poly-(L)-glutamic acid]-[2′-O-(glycyl)-docetaxel] conjugate [Compound I6] | – | – | 6/6 | 6/6 | – | –
